Values quoted from earlier work, collected in patent publication US5280015A, “2-substituted adenosines and 2-substituted adenosine 5'-carboxamides” (priority 1990, dated 1994).
pKi: −log10 of the molar value.

Sequences of proteins named here, by UniProt entry; tags and fusion partners are left off.
UniProt P30543, whole entry: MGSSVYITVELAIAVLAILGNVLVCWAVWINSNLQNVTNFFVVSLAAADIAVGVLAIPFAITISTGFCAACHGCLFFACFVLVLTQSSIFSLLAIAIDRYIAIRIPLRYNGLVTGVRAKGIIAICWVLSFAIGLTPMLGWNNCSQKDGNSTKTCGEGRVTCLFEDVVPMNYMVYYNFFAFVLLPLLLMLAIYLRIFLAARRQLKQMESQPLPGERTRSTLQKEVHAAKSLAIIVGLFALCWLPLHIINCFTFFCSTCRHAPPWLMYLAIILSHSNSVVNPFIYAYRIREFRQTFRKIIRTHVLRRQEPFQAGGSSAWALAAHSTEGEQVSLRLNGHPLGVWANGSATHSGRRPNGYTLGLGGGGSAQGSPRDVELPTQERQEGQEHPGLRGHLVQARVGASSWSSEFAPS

Target: A2-adenosine receptors (Rattus norvegicus, UniProt P30543)
Conditions: read-out: Ki, inhibition of binding of [3H]NECA at A2 receptors; cited from earlier work

C[C@H](Cc1ccccc1)Nc1ncnc2c1ncn2[C@@H]1O[C@H](CO)[C@@H](O)[C@H]1O [R-PIA, N^6 -phenylisopropyladenosine, reference compound]
pKi: 6.92
